Laboratory results as given in publication PMC3273622.

Assays:
Assay in all cases: purified protein
[1] = tested on: C[C@@H]1O[C@@H]1P(=O)(O)O; settings: co-substrate ATP, 10 mM MgCl2, pH 7.5, 37 °C
[2] = tested on: Nc1ncnc2c1ncn2[C@@H]1O[C@H](COP(=O)(O)OP(=O)(O)OP(=O)(O)O)[C@@H](O)[C@H]1O; settings: co-substrate IP, 10 mM MgCl2, pH 7.5, 37 °C
C=C(C)CCOP(=O)(O)O = settings: co-substrate ATP, 10 mM MgCl2, pH 7.5, 37 °C

Q: “THA IPK (isopentenyl phosphate kinase) (Thermoplasma acidophilum DSM 1728; K204A)” was tested. Which Km [1] did it give?
A: The Km was “(1.1 ± 0.1) × 10^4 μM”.

Q: What about the kcat [1] of the same substance?
A: Its kcat is “(3 ± 0.1) × 10^−2 s^−1”.

Q: What about the kcat/Km [1] of the same substance?
A: The kcat/Km was 2.5 M⁻¹ s⁻¹.

Q: And the Km [2]?
A: The Km was 6.9 ± 0.6 µM.

Q: And the kcat [2]?
A: Its kcat is 7.7 ± 0.2 s⁻¹.

Q: What about the Km (C=C(C)CCOP(=O)(O)O) of the same substance?
A: Its Km is 2.8 ± 0.3 µM.

Q: What about the kcat (C=C(C)CCOP(=O)(O)O) of the same substance?
A: The kcat was 7.7 ± 0.2 s⁻¹.

Q: And the kcat/Km (C=C(C)CCOP(=O)(O)O)?
A: Its kcat/Km is 2.8e+06 M⁻¹ s⁻¹.
